The test system of the data set is intracranial ST1360B PDX tumors. The following applies: individual mouse, scale 0-4 (0 no, 4 massive brain edema).

Where “and” joins values, the source holds several entries; their conditions need not be identical. Identical values can stand only once.

Take T-DM1: under “day 3 post initiation of therapy”, the “Brain edema score day 3” value was 1 and 2. Also, the “Brain edema score day 7” value (day 7 post initiation of therapy) is 2 and 1 and 3. The “Brain edema score day 10” value (day 10 post initiation of therapy) is 2 and 0 and 3 and 1. Besides, the “Brain edema score day 14” value (day 14 post initiation of therapy) was 3 and 2. In addition, for the setting “day 21 post initiation of therapy”, the “Brain edema score day 21” value was 4 and 2. Moreover, the “Brain edema score day 28” value (day 28 post initiation of therapy) is 4 and 3. Further, the “Brain edema final score” value (last MR scan of each mouse) was 2 and 3 and 4.

(Values after patent EP4810518A2, “ANTIBODY THAT BINDS ERBB-2 AND ERBB-3” (Merus B.V., priority 2017, dated 2018).)
